## Curated experimental data: logP (octanol/water) values

From the experimental data distributed with OPERA 2.9.

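These are experimental values that the OPERA curators gathered from public databases to train and test their QSAR models. The files give a single number for a compound and property, which may rest on several reports. Conditions of the individual experiments are not part of the data. Where a salt, mixture or single isomer is drawn, the source does not say that exactly this form was tested. Some entries may be limits or estimates that an upstream database listed as plain numbers.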

The octanol-water partition coefficient is given as log10; larger values mean a more lipophilic compound.
"via" names the databases from which the curators took the value.

| structure (SMILES) | logP (octanol/water) | via |
|---|---|---|
| Cc1ncc(C[n+]2csc(CCOP(=O)(O)O)c2C)c(N)n1.[Cl-] | -4.7 | eChemPortal |
| Cc1ccc(O)c(/N=N/c2ccccc2[N+](=O)[O-])c1 | 4 | eChemPortal |
| Clc1cccc(-c2c(Cl)cccc2Cl)c1Cl | 5.53 | OCHEM |
| Cc1no[n+]([O-])c1S(=O)(=O)c1ccccc1 | 2.26 | OCHEM |
| OB(O)c1ccc2cc(O)ccc2c1 | 2.47 | eChemPortal |
| CCCCOC(=O)[C@@H]1CCCC[C@@H]1C(=O)OCc1ccccc1 (relative stereo) | 4.56 | eChemPortal |
| CC(Cc1ccc(C(C)(C)C)cc1)C(=O)O (stereo unspecified) | 3.39 | OCHEM |
| Cl.Nc1ccc(CCNCC(O)c2ccccc2)cc1 (stereo unspecified) | -1.35 | eChemPortal |
| C[C@]12CC[C@@H]3C4=C(CC[C@H]3[C@@H]1CC[C@@]2(O)CC#N)CC(=O)CC4 | 2.15 | eChemPortal |
| CCC(=O)OCCC(C)C | 3.133 | eChemPortal |
| CCCCCCCC[N+](C)(CCCCCCCC)CCCCCCCC.[Cl-] | 4.5 | eChemPortal |
| C#CC(C)(O)CCCC(C)CCCC(C)C (stereo unspecified) | 5.6 | eChemPortal |
| Cc1ccc(S(=O)(=O)Nc2cc(S(=O)(=O)[O-])cc3cc(S(=O)(=O)[O-])c(/N=N/c4ccc(Oc5ccccc5C)cc4Oc4ccccc4C)c(O)c23)cc1.[Na+].[Na+] | -0.994 | eChemPortal |
| Cc1nn(C)c(O)c1C(O)c1ccc(C(F)(F)F)cc1S(C)(=O)=O (stereo unspecified) | -1.471 | eChemPortal |
| CCCCOCCOCC(=O)[O-].[Na+] | -1.89 | eChemPortal |
| COc1ccc(C(=O)Nc2ccc3nn(C4CCCC4)nc3c2)cc1 | 4.03 | OCHEM |
| COc1cccc2nc3c4cccc5cccc(c(=O)n3c12)c54 | 4.8 | eChemPortal |
| CC(C)=CCCC(C)=CCCC=O | 4.4 | eChemPortal |
| CCN(CC)c1ccc(C(=C2C=CC(=[N+](CC)CC)C=C2)c2cc(O)c(S(=O)(=O)[O-])cc2S(=O)(=O)[O-])cc1.CCN(CC)c1ccc(C(=C2C=CC(=[N+](CC)CC)C=C2)c2cc(O)c(S(=O)(=O)[O-])cc2S(=O)(=O)[O-])cc1.[Ca+2] | -1.99 | eChemPortal |
| CC1(C)[C@H]2CC=C(CCO)[C@@H]1C2 | 3.09 | eChemPortal |
| O=[N+]([O-])c1ccc(S(=O)(=O)Cl)cc1 | 2.1 | eChemPortal |
| COc1ccc(-c2ccc3cc(C(=O)O)ccc3c2)cc1C12CC3CC(CC(C3)C1)C2 | 8.6 | PubChem |
| C=C[C@@H](COC(C)=O)OC(C)=O | 1.53 | eChemPortal |
| COCCNCc1cc2sc(S(N)(=O)=O)cc2s1 | 0.51 | OCHEM |
| CC(=O)OCC(C)(C)C=NCC1(C)CC(N=CC(C)(C)COC(C)=O)CC(C)(C)C1 (stereo unspecified) | 1.175 | eChemPortal |
| Cc1cc(/N=N/c2ccc(/C=C/c3ccc(/N=N/c4c(C)cc(O)cc4C(=O)[O-])cc3S(=O)(=O)[O-])c(S(=O)(=O)[O-])c2)cc(C(=O)[O-])c1O.[Li+].[Li+].[Li+].[Li+] | -4.04 | eChemPortal |
| CN(C)CCOCCO | -0.994 | eChemPortal |
| CCN1CCOCC1 | 0.08 | eChemPortal |
| CC(=O)OCC1CCC=C(CCC=C(C)C)C1 (stereo unspecified) | 5.65 | eChemPortal |
| F[B-](F)(F)F.F[B-](F)(F)F.F[N+]12CC[N+](CCl)(CC1)CC2 | -3.39 | eChemPortal |
| C[C@@H]1C[C@H]2[C@@H]3C[C@H](F)C4=CC(=O)C=C[C@]4(C)[C@H]3[C@@H](O)C[C@]2(C)[C@H]1C(=O)CO | 2.3 | eChemPortal |
| CCCCC(F)(F)[C@@]1(O)CC[C@H]2[C@@H](CC(=O)[C@@H]2CCCCCCC(=O)O)O1 | 4.3 | PubChem |
| C=CC(=O)Oc1c(Cc2cc(C)cc(C(C)(C)C)c2O)cc(C)cc1C(C)(C)C | 7.25 | eChemPortal |
| CCOC(=O)CN(CC(=O)OCC)C(=O)Oc1c(C#N)c(C(=O)OC2C(C(C)(C)C)CC(C)CC2C(C)(C)C)c2[nH]c(-c3ccc(C(C)(C)C)cc3)nn12 (stereo unspecified) | 7.7 | eChemPortal |
| CC(C)(O)Cc1ccccc1 | 1.87 | eChemPortal |
| NC(CO)CO | -1.82 | eChemPortal |
| CCCCCCCC[N+](C)(C)C.COS(=O)(=O)[O-] | -1.86 | eChemPortal |
| N#CCCN(CCC#N)c1ccc(N=Nc2c(Br)cc([N+](=O)[O-])cc2C(F)(F)F)cc1 | 3.6 | eChemPortal |
| C[C@]12CCC(=O)C=C1CC[C@@H]1[C@@H]2CC[C@@]2(C)[C@H]1CC[C@@]2(O)C#CCO | 2.24 | eChemPortal |
| CN(C)C1=[O+]CCC1(c1ccccc1)c1ccccc1.[Br-] | -2.3 | eChemPortal |
| O=C([O-])C(O)C(O)C(O)C(O)CO.O=C([O-])C(O)C(O)C(O)C(O)CO.[Ca+2] | 0.021 | eChemPortal |
| CC1c2nc3ccccc3c(=O)n2CN1CCO (stereo unspecified) | 0.46 | OCHEM |
| CC1C2CC(CC2C2CCCC(O)C2)C1(C)C (stereo unspecified) | 5.07 | eChemPortal |
| Cc1cc(S(=O)(=O)[O-])c(/N=N/c2c(O)c(C(=O)[O-])cc3ccccc23)cc1Cl.[Ca+2] | -0.75 | eChemPortal |
| CCn1cc[n+](C)c1.[Cl-] | -2.6 | eChemPortal |
| Cc1c(Cl)cc(C(C)C)cc1Cl | 5.5 | OCHEM |
| N#CCCN(CCC#N)c1ccc(N=Nc2c(Cl)cc([N+](=O)[O-])cc2Cl)cc1 | 3.6 | eChemPortal |
| CCCCCCCCN=c1ccn(CCCCCCCCCCn2ccc(=NCCCCCCCC)cc2)cc1.Cl.Cl | 1.5 | eChemPortal |
| O=S(=O)(O)CCNC1CCCCC1 | -2.2 | eChemPortal |
| CO[C@]1(C)CC[C@@]23C[C@@H]1C(C)(C)[C@@H]2CC[C@H]3C (stereo in doubt) | 5.1 | eChemPortal |
| c1ccc(CN2CCN(Cc3ccccc3)CCN(Cc3ccccc3)CCN(Cc3ccccc3)CC2)cc1 | 2 | eChemPortal |
| CCCCCCCC/C=C\CCCCCCCC(=O)OCC(C)OC(=O)CCCCCCC/C=C\CCCCCCCC (stereo partly drawn) | 8.474 | eChemPortal |

The 8 highest values of logP (octanol/water) among the entries above:

| structure (SMILES) | logP (octanol/water) | via |
|---|---|---|
| COc1ccc(-c2ccc3cc(C(=O)O)ccc3c2)cc1C12CC3CC(CC(C3)C1)C2 | 8.6 | PubChem |
| CCCCCCCC/C=C\CCCCCCCC(=O)OCC(C)OC(=O)CCCCCCC/C=C\CCCCCCCC (stereo partly drawn) | 8.474 | eChemPortal |
| CCOC(=O)CN(CC(=O)OCC)C(=O)Oc1c(C#N)c(C(=O)OC2C(C(C)(C)C)CC(C)CC2C(C)(C)C)c2[nH]c(-c3ccc(C(C)(C)C)cc3)nn12 (stereo unspecified) | 7.7 | eChemPortal |
| C=CC(=O)Oc1c(Cc2cc(C)cc(C(C)(C)C)c2O)cc(C)cc1C(C)(C)C | 7.25 | eChemPortal |
| CC(=O)OCC1CCC=C(CCC=C(C)C)C1 (stereo unspecified) | 5.65 | eChemPortal |
| C#CC(C)(O)CCCC(C)CCCC(C)C (stereo unspecified) | 5.6 | eChemPortal |
| Clc1cccc(-c2c(Cl)cccc2Cl)c1Cl | 5.53 | OCHEM |
| Cc1c(Cl)cc(C(C)C)cc1Cl | 5.5 | OCHEM |